Laboratory results reported in PubChem BioAssay AID602449 (Sanford-Burnham Center for Chemical Genomics, 2012).
This is a selection; strong and weak results do not stand in their true shares. Calls of active or inactive are those of the source.

assay: mitochondrial permeability transition pore inhibitors, primary screen, biochemical, isolated mouse mitochondria, absorbance (AID 602449); conditions: Ca2+ swelling absorbance, 30 min, at 10 µM, stronger effect = higher value;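 further: 0% = DMSO wells given calcium and 100% = 1 mM EGTA wells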

Row | SMILES | inhibition
1 | COc1cccc(C(=O)N(c2cc(C)cc(C)c2)C2CCN(C(=O)OC(C)(C)C)CC2)c1 | inactive: -0.4%
2 | COc1cc(OC)cc(C(=O)NCC2(N3CCOCC3)CCCCC2)c1 | inactive: -0.4%
3 | COc1cccc(C(c2nnnn2C2CCCC2)N2CCC(n3c(=O)[nH]c4ccccc43)CC2)c1OC (configuration not stated) | inactive: -1.6%
4 | CCC(CO)(C(=O)OC1CN2CCC1CC2)c1ccccc1 (configuration not stated) | inactive: 5%
5 | CN1CCC(Nc2ccc(Cl)cc2)CC1 | inactive: 0.3%
6 | CCOc1ncccc1C(=O)NCC1(N2CCOCC2)CCCCC1 | inactive: -0.6%
7 | CN1CCC(Nc2ccc(F)c(Cl)c2)CC1 | inactive: 0.7%
8 | CC(C)(C)OC(=O)N1CCC(Nc2ccccc2)CC1 | inactive: 1.5%
9 | NN(c1ccccc1)C1CCN(CCc2ccccc2)CC1 | inactive: 1.8%
10 | O=C(O)C1(Nc2ccccc2)CCN(Cc2ccccc2)CC1 | inactive: -0.5%
11 | O=c1[nH]c2ccccc2n1C1CCN(C(c2cc3ccccc3o2)c2nnnn2C2CCCC2)CC1 (configuration not stated) | inactive: 0.9%
12 | CCCOc1ccc(C(=O)NCC2(N(C)C)CCCCC2)cc1 | inactive: 2%
13 | Cc1ccccc1NC1(C#N)CCN(Cc2ccccc2)CC1 | inactive: -0.5%
14 | CCN1CCC(Nc2cccc(F)c2)CC1 | inactive: 0.2%
15 | COc1ccc(C(c2nnnn2C2CCCCC2)N2CCC(n3c(=O)[nH]c4ccccc43)CC2)cc1 (configuration not stated) | inactive: -1.8%
16 | CC(C)(C)n1nnnc1C(c1ccnc2ccccc12)N1CCC(n2c(=O)[nH]c3ccccc32)CC1 (configuration not stated) | inactive: -1%
17 | O=C(NCC1(N2CCCCC2)CCCCC1)c1ccco1 | inactive: -0.6%
18 | CN(C)c1ccc(C(=O)NCC2(N3CCCCC3)CCCCC2)cc1 | inactive: -0.4%
19 | Cn1c(=O)[nH]cc(N(CCCl)CCCl)c1=O | inactive: -3.3%
20 | COc1cccc(C(c2nnnn2C2CCCCC2)N2CCC(n3c(=O)[nH]c4ccccc43)CC2)c1OC (configuration not stated) | inactive: 2.2%
21 | CC(=O)N(c1ccccc1)C1CCNCC1 | inactive: 0.3%
22 | CCC(c1nnnn1C1CCCCC1)N1CCC(n2c(=O)[nH]c3ccccc32)CC1 (configuration not stated) | inactive: -0.1%
23 | COc1cc(OC)cc(C(=O)NCC2(N3CCCCC3)CCCCC2)c1 | inactive: 0.6%
24 | O=c1[nH]c2ccccc2n1C1CCN(C(c2ccnc3ccccc23)c2nnnn2C2CCCCC2)CC1 (configuration not stated) | inactive: 0%

Row | SMILES | inhibition
25 | Cc1ccc(C(=O)NCC2(N3CCCCC3)CCCCC2)o1 | inactive: -2.4%
26 | Fc1ccccc1NC1CCN(Cc2ccccc2)CC1 | inactive: -0.6%
27 | Cc1ccc(NC2(C#N)CCN(Cc3ccccc3)CC2)cc1 | inactive: -0.1%
28 | CN(C)C1(CNC(=O)c2cccc(C#N)c2)CCCCC1 | inactive: -1%
29 | c1ccc(CN2CCC(Nc3ccccc3)CC2)cc1 | inactive: 1.6%
30 | Cc1cc(N(CCCl)CCCl)ccc1C=O | inactive: -1.1%
31 | O=c1[nH]c2ccccc2n1C1CCN(C(c2ccccc2)c2nnnn2C2CCCC2)CC1 (configuration not stated) | inactive: -0.5%
32 | CCCN1CCC(Nc2cc(OC)cc(OC)c2)CC1 | inactive: -0.1%
33 | CC(C)(C)n1nnnc1C(c1cccc2ccccc12)N1CCC(n2c(=O)[nH]c3ccccc32)CC1 (configuration not stated) | inactive: -3.6%
34 | N#Cc1ccc(C(=O)NCC2(N3CCCCC3)CCCCC2)cc1 | inactive: -0.8%
35 | CC(C)(C)OC(=O)N1CCC(N(C(=O)c2ccccc2)c2ccc(Cl)cc2)CC1 | inactive: 0%
36 | CCOC(=O)N1CCC(Nc2ccc(C)cc2)CC1 | inactive: 0.6%
37 | COc1cccc(C(c2nnnn2C(C)(C)C)N2CCC(n3c(=O)[nH]c4ccccc43)CC2)c1OC (configuration not stated) | inactive: -0.3%
38 | N/C(=N\O)c1c(N)no[n+]1[O-] | inactive: -1.3%
39 | O=C(OC1CN2CCC1CC2)C1c2ccccc2C=Cc2ccccc21 (configuration not stated) | inactive: -1.5%
40 | O=c1[nH]c2ccccc2n1C1CCN(C(c2cccs2)c2nnnn2C2CCCC2)CC1 (configuration not stated) | inactive: -0.5%
41 | CCCCn1nnnc1C(c1cccc(OC)c1OC)N1CCC(n2c(=O)[nH]c3ccccc32)CC1 (configuration not stated) | inactive: -0.4%
42 | CCCCn1nnnc1C(c1ccccc1)N1CCC(n2c(=O)[nH]c3ccccc32)CC1 (configuration not stated) | inactive: -2.7%
43 | COc1cc(C(=O)NCC2(N3CCOCC3)CCCCC2)cc(OC)c1C | inactive: -0.1%
44 | O=C(NCC1(N2CCOCC2)CCCCC1)c1cc(Br)ccc1Cl | inactive: -2.5%
45 | O=c1[nH]c2ccccc2n1C1CCN(C(c2cccs2)c2nnnn2C2CCCCC2)CC1 (configuration not stated) | inactive: -1.8%
46 | COc1ccc(C(=O)NCC2(N3CCOCC3)CCCCC2)cc1OC | inactive: -2.5%
47 | O=c1[nH]c2ccccc2n1C1CCN(C(c2ccnc3ccccc23)c2nnnn2C2CCCC2)CC1 (configuration not stated) | inactive: -0.3%
